# In PubChem BioAssay AID504332 (National Center for Advancing Translational Sciences (NCATS), 2011):
# By UniProt entry, the sequences of proteins in these tests, tags left out. Residues count along the entry.
# UniProt Q96KQ7, 913-1193 limits assumed: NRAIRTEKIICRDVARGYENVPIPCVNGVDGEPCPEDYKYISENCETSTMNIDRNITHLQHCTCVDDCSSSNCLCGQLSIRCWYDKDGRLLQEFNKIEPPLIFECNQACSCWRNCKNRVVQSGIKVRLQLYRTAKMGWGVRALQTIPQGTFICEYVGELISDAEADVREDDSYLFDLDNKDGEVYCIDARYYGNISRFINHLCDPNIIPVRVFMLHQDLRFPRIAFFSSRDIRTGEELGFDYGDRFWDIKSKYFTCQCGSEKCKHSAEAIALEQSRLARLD
# This is a selection; strong and weak results do not stand in their true shares. Results filed as inconclusive are left out. The source made the active and inactive calls. Calls come from the whole dose curve; as a rule, active = well fitted inhibition curve with a large enough effect; inconclusive = small, poorly fitted or top-dose-only effect; inactive = no such curve, though single readings can be large or run the other way.
# Target: Histone-lysine N-methyltransferase EHMT2 (Homo sapiens) (UniProt Q96KQ7)
# Assay: qHTS Assay for Inhibitors of Histone Lysine Methyltransferase G9a; note: nearly all actives have a fitted effect of over 75% in size
# Conditions: G9a H3K9 monomethylation, AlphaScreen, 2 h; at 59 µM (top of the series)
# % is set by controls: 0 for no effect and ±100 for the full control effect.
row,Structure (SMILES),"activity, negative = inhibition"
1,CN(CCCl)CCCl,inactive: -0.907%
